Measurements reported in patent US7122321B2, “High throughput method for functionally classifying proteins identified using a genomics approach” (Johnson & Johnson Pharmaceutical Research & Development, …, priority 1997, dated 2006).

Legend:
human α-thrombin (human) [1] = target: human α-thrombin (human) (UniProt P00734); assay: microplate thermal shift assay, Kd at Tm calculated with equation (1); hirudin peptide alone, 50 µM
human α-thrombin (human) [2] = target: human α-thrombin (human) (UniProt P00734); assay: microplate thermal shift assay, Kd at 298 K estimated with equation (3), binding enthalpy assumed -10.0 kcal/mole; hirudin peptide alone

- Kd (human α-thrombin (human) [1]): 185 nM
- Kd (human α-thrombin (human) [2]): 23 nM
Substance: Hirugen (hirudin 53-64) (Sigma) (from UniProt P09945 60-71) (peptide)
